Only a part is listed here, and it is no random draw. Active and inactive are the calls of the source. No stated cut-off is given here; in the data, active means activation above about 40%; inconclusive means between about 15% and that limit; inactive means weaker than that.

Protein sequences, listed by entry. Tags and fused reporters are not part of them.
UniProt P14416, whole entry: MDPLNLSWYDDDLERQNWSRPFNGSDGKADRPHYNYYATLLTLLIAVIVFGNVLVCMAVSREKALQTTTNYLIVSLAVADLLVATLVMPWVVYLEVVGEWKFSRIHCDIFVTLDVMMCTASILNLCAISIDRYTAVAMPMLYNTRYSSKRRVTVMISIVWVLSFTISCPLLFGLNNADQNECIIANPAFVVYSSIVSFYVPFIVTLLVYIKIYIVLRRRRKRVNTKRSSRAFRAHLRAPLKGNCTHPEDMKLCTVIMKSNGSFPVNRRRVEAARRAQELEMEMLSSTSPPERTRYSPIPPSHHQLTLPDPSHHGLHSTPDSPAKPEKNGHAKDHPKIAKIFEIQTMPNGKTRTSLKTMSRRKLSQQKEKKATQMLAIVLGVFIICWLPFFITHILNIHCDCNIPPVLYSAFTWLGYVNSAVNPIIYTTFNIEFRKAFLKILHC

This assay concerns the target D(2) dopamine receptor (Homo sapiens) (UniProt P14416). Kind of assay: Beta-Arrestin HTS for Positive Allosteric Modulators of the Human D2 Dopamine Receptor: Agonists. To be noted: DiscoveRx PathHunter D2 beta-arrestin, luminescence, 90 min; active compounds read high; 100% = 57 uM dopamine signal. The text has this:
There is great interest in identifying small molecule ligands for G-protein coupled receptors (GPCRs) as nearly 50% of all FDA-approved drugs target these important receptor proteins. […] Amongst the dopamine receptors (DARs), the D2 is arguably one of the most validated drug targets in neurology and psychiatry. For instance, all receptor-based antiparkinsonian drugs primarily work via stimulating the D2 DAR, whereas all FDA-approved antipsychotic agents are antagonists of this receptor. The D2 DAR is also therapeutically targeted in other disorders such as restless legs syndrome, tardive dyskinesia, Tourette's syndrome, and hyperprolactinemia.
To this end, a miniaturized qHTS screen was developed to be screened against the Molecular Libraries Small Molecule Repository (MLSMR). This assay seeks to identify agonists against the D2 DAR.
NIH Molecular Libraries Probe Production Network [MLPCN] […]
DiscoveRx D2 cells were thawed from frozen stock and seeded at 2,100 cells/ 3 uL/well media (DiscoveRx Plating Reagent 2) with MultiDrop Combi dispenser (Thermo Scientific, Logan, UT) onto white tissue culture treated 1536-well Aurora plates (Brooks Automation, Chelmsford, MA) and allowed to attach overnight at 37 deg C, 5% CO2. […] The plates were incubated at ambient temperature for 1 hour and then the luminescent signal was read on ViewLux plate reader (PerkinElmer, Waltham, MA).
Turning to `CCC(=O)N(c1ccccc1)C1(COC)CCN(CCn2nnn(CC)c2=O)CC1`, the activation is inactive: 1.48%.

On to `CCC(=O)N(c1ccccc1)C1(COC)CCN(CCc2cccs2)CC1`, for which the activation is inactive: 2.61%.

(Values after PubChem BioAssay AID624465 (National Center for Advancing Translational Sciences (NCATS), 2012).)
